The test system of the experiment is related kinases. Nature of the experiment: Selectivity in cellular assay systems. It counts as cell-based.

As to `C=CC(=O)Nc1cccc(Nc2nc(Nc3ccc(OCCOC)cc3)ncc2F)c1` [Compound 1, N-(3-(5-fluoro-2-(4-(2-methoxyethoxy)phenylamino)pyrimidin-4-ylamino)phenyl)acrylamide], the “Selectivity against related kinases” value is given as “high degree of selectivity”.

The values are drawn from patent US20140142128A1, “METHODS OF TREATING A DISEASE OR DISORDER ASSOCIATED WITH BRUTON'S TYROSINE KINASE” (Celgene Avilomics Research, Inc., priority 2012, published 2014).
